Test system: Sprague-Dawley rats
Assay: Food intake in rats following IV administration of DAC
Format: in vivo, rat
Conditions: tail vein injection
Description: Compound I (PYY3-36) and Compound III were injected into the tail vein of fully grown Sprague-Dawley rats. Two experiments were carried out so as to verify the influence of the concentration on Compound III of the food consumption of the animal. The food intake was measured pre and post administration (see FIGS. 1 and 2). In experiment 1 on FIG. 1, 4-500 g rats were used and in experiment 2 on FIG. 2, 2-300 g rats were used.

CC[C@H](C)[C@H](N)C(=O)N[C@@H](CCCCN)C(=O)N1CCC[C@H]1C(=O)N[C@@H](CCC(=O)O)C(=O)N[C@@H](C)C(=O)N1CCC[C@H]1C(=O)NCC(=O)N[C@@H](CCC(=O)O)C(=O)N[C@@H](CC(=O)O)C(=O)N[C@@H](C)C(=O)N[C@@H](CO)C(=O)N1CCC[C@H]1C(=O)N[C@@H](CCC(=O)O)C(=O)N[C@@H](CCC(=O)O)C(=O)N[C@@H](CC(C)C)C(=O)N[C@@H](CC(N)=O)C(=O)N[C@@H](CCCNC(=N)N)C(=O)N[C@@H](Cc1ccc(O)cc1)C(=O)N[C@@H](Cc1ccc(O)cc1)C(=O)N[C@@H](C)C(=O)N[C@@H](CO)C(=O)N[C@@H](CC(C)C)C(=O)N[C@@H](CCCNC(=N)N)C(=O)N[C@@H](Cc1c[nH]cn1)C(=O)N[C@@H](Cc1ccc(O)cc1)C(=O)N[C@@H](CC(C)C)C(=O)N[C@@H](CC(N)=O)C(=O)N[C@@H](CC(C)C)C(=O)N[C@H](C(=O)N[C@H](C(=O)N[C@@H](CCCNC(=N)N)C(=O)N[C@@H](CCC(N)=O)C(=O)N[C@@H](CCCNC(=N)N)C(=O)N[C@@H](Cc1ccc(O)cc1)C(N)=O)[C@@H](C)O)C(C)C [Compound I]
reduction in food intake after 24 hrs (25 nmol/kg): does not show reduction in food | reduction in food intake after 24 hrs (375 nmol/kg, result in words): does not show reduction in food
